Test results taken from published antibiotic growth screens (doi:10.1038/s41589-023-01349-8).
This is one part of the list.

Test system: A. baumannii ATCC 17978
Experiment: relative growth (fraction of control); higher = less inhibition
Conditions: 50 µM

Row | SMILES | relative growth
1 | O=C(C[C@@H]1C=C[C@H](NC(=O)c2cccnc2)[C@@H](CO)O1)NCCN1CCCCC1 | 1.09
2 | Cc1c(C(N)=O)cc([N+](=O)[O-])cc1[N+](=O)[O-] | 0.795
3 | O=C1CSCC(=O)N1c1cccnc1 | 0.962
4 | C=CCOC(=O)[C@@H]1[C@H]2C(=O)O[C@H](c3ccccc3)[C@H](c3ccccc3)N2[C@H](c2ccc(OCCOC(=O)[C@H]3C[C@H]4C(=O)N[C@@H](CCCCN(C)C)C(=O)N4[C@H]3c3cccc(OCCO)c3)cc2)[C@@]12C(=O)Nc1ccc(I)cc12 | 1.26
5 | Cc1nn(C)cc1NC(=O)C[C@@H]1CC[C@@H]2[C@@H](COc3ccc(NC(=O)C4CCOCC4)cc3C(=O)N2C)O1 | 0.911
6 | N=C(N)Nc1nc(=O)c2ccccc2[nH]1 | 0.941
7 | C[C@H]1CC2C3CCC4=CC(=O)C=C[C@]4(C)[C@@]3(F)[C@@H](O)C[C@]2(C)[C@@]1(O)C(=O)CO (stereo not given in full) | 1.22
8 | O=c1nc(NCc2ccco2)cc[nH]1 | 0.966
9 | O=C(C[C@@H]1CC[C@@H](NC(=O)c2cccnc2)[C@@H](CO)O1)NCCN1CCCCC1 | 0.921
10 | N=C(N=C(N)N)NCCc1ccccc1 | 0.971
11 | COc1cccc(NC(=O)N2C[C@H](O)COC[C@H]3O[C@H](CC(=O)NC4Cc5ccccc5C4)CC[C@@H]32)c1 | 0.862
12 | CC(C)(C)OC(=O)C[C@@H]1CC=CC[C@H](CC(=O)N[C@@H](CO)Cc2ccccc2)C(=O)N2CCC[C@H]2COC1=O | 0.935
13 | C[C@@H]1OC2=C(Cl)C(=O)N3CCC[C@H]3C[C@@]21O | 0.965
14 | CC(C)c1cccc(C(C)C)c1NC(=O)Cc1cccs1 | 0.955
15 | Cn1c(=O)c2[nH]cnc2n(C)c1=O | 1.03
16 | COCCOC(=O)N1C(=O)[C@@]2(c3cc(C#CC4(O)CCCCCC4)ccc31)[C@H](C(=O)N1CCCCCCC1)[C@H]1C(=O)O[C@H](c3ccccc3)[C@H](c3ccccc3)N1[C@@H]2c1ccc(OCCO)cc1 | 0.988
17 | C[C@H]1OC(=O)c2c(O)ccc(O)c2[C@H]1O | 1.01
18 | C=C1CC[C@H](O)C/C1=C/C=C1\CCCC2(C)C1CCC2C(C)CCCC(C)C (stereo not given in full) | 1.34
19 | NCCNc1ccc([N+](=O)[O-])c(NCCO)c1 | 0.919
20 | CN[C@@H]1[C@H](OC2[C@H](O[C@H]3[C@H](O)[C@@H](O)[C@H](NC(=N)N)[C@@H](O)[C@@H]3NC(=N)N)O[C@@H](C)[C@]2(O)C=O)O[C@@H](CO)[C@H](O)[C@H]1O.O=S(=O)(O)O (stereo not given in full) [STREPTOMYCIN SULFATE [5mM; 10% aq DMSO + 5mM ethanolamine]] | 0.605
21 | Cc1[nH]c(=O)c(C#N)cc1-c1ccncc1 | 1.05
22 | C[C@H](CO)N1C[C@H](C)[C@H](CN(C)C(=O)C2CC2)Oc2cc(-c3ccc(C(=O)N(C)C)cc3)ccc2S1(=O)=O | 0.972
23 | O=C(C[C@@H]1CC=CC[C@H](NC(=O)OCC2c3ccccc3-c3ccccc32)C(=O)O[C@H](c2ccccc2)CNC1=O)N[C@H](CO)Cc1ccccc1 | 0.76
24 | Cc1ccc(S(=O)(=O)N(C)C[C@H]2Oc3cc(C#Cc4ccccc4)ccc3S(=O)(=O)N([C@@H](C)CO)C[C@H]2C)cc1 | 1.04
25 | C#CCN(C)Cc1ccccc1.Cl | 1.18
26 | C=CC[C@@H](CC(=O)NCCO)C(=O)NC[C@H](OC(=O)[C@@H](CC=C)CC(=O)OC(C)(C)C)c1ccccc1 | 0.743
27 | C#C[C@]1(O)CC[C@H]2[C@@H]3CCc4cc(OC5CCCC5)ccc4[C@H]3CC[C@@]21C | 1.07

Row | SMILES | relative growth
28 | Cc1ccnc2c1NC(=O)c1cccnc1N2C1CC1 | 1.3
29 | COCC#Cc1cnc2c(c1)C(=O)N([C@H](C)CO)C[C@@H](C)[C@H](CN(C)C(=O)Nc1ccc(OC)cc1)O2 | 1.19
30 | C=C(C(=O)O)[C@@H](CCCCCCOC(=O)C(=O)OCCCCCC[C@@H](C(=C)C(=O)O)C(=O)O)C(=O)O | 0.935
31 | C[C@H]1CN([C@@H](C)CO)S(=O)(=O)c2ccc(C#Cc3ccccc3)cc2O[C@@H]1CN(C)C(=O)Cc1ccccn1 | 0.913
32 | COCC(=O)N(C)C[C@H]1Oc2cc(-c3ccc(OC)cc3)ccc2S(=O)(=O)N([C@@H](C)CO)C[C@H]1C | 1.01
33 | C[C@@H]1CN([C@H](C)CO)S(=O)(=O)c2ccc(C#Cc3ccc(F)cc3)cc2O[C@@H]1CN(C)S(C)(=O)=O | 0.816
34 | CC(CCc1ccc(O)cc1)NCC(O)c1ccc(O)cc1.Cl (stereo not given) | 1.05
35 | O.O.OC[C@H]1O[C@H](O[C@H]2O[C@H](CO)[C@@H](O)[C@H](O)[C@H]2O)[C@H](O)[C@@H](O)[C@@H]1O | 0.994
36 | CCC(=O)OC1[C@@H]2CC3=C4CC(=O)O[C@@H](c5ccoc5)[C@]4(C)CCC3[C@@](C)(C2=O)[C@@H](CC(=O)OC)C1(C)C (stereo not given in full) | 1.04
37 | Cc1[nH]c(=S)c(C#N)c(C)c1Cc1ccc(Cl)cc1Cl | 1.09
38 | NCC[C@@H]1CC[C@@H](NC(=O)C2CCC2)[C@H](CO)O1 | 1.04
39 | CC1(C)O[C@@H]2CC3C4CCC5=CC(=O)CCC5(C)C4(F)C(O)CC3(C)[C@]2(C(=O)CCl)O1 (stereo not given in full) | 1.19
40 | COc1oc(C(=O)NC2CCCCC2)c(-c2ccc(Cl)cc2)c1S(=O)(=O)/C=C/c1ccccc1 | 0.91
41 | O=C(Nc1ccccc1)c1ccccc1O | 0.163
42 | CC(C)c1ccc(C(C)(C)CO)cc1 | 1.12
43 | Nc1nnc(C(=O)c2ccccc2N)s1 | 0.934
44 | COC(=O)C[C@H]1C(C)(C)C(=O)[C@@H]2CC3=C(CC[C@]4(C)C3=CC(=O)O[C@H]4c3ccoc3)[C@@]1(C)C2=O | 0.972
45 | Nc1ncnc2c1ncn2[C@@H]1O[C@H](COP(=O)(O)OP(=O)(O)OP(=O)(O)OP(=O)(O)OC[C@H]2O[C@@H](n3cnc4c(N)ncnc43)[C@H](O)[C@@H]2O)[C@@H](O)[C@H]1O | 1.01
46 | CN[C@@H]1C(O)[C@@H](O[C@@H]2[C@@H](O)[C@H](O[C@H]3OC(CN)=CC[C@H]3N)[C@@H](N)C[C@H]2N)OC[C@]1(C)O.O=S(=O)(O)O (stereo not given in full) | 1.02
47 | CO[C@@H]1CN(C)C(=O)c2cc(NC(=O)Nc3cccc(F)c3)ccc2OC[C@@H](C)N(C(=O)Nc2c(C)noc2C)C[C@@H]1C | 0.956
48 | CC1=C(C(=O)O)N2C(=O)[C@@H](NC(=O)[C@@H](N)c3ccc(O)cc3)[C@H]2SC1 | 1.03
49 | O=C(N[C@@H](CO)[C@H](O)c1ccc([N+](=O)[O-])cc1)C(Cl)Cl | 0.495
50 | N[C@H]1[C@@H](O[C@H]2[C@H](O)[C@@H](OS(=O)(=O)[O-])[C@H](CO[C@H]3[C@H](O)[C@@H](O)[C@@H](O)O[C@@H]3CO)O[C@@H]2C(=O)[O-])O[C@H](COS(=O)(=O)[O-])[C@@H](O)[C@@H]1O | 0.989
51 | Cc1cc(C)c(/N=c2\scc(C)n2Cc2ccccc2)c(C)c1 | 0.981
52 | Cc1ccc(S[C@]2(C(=O)NCC(F)(F)F)CC(=O)N(Cc3cc(C(F)(F)F)cc(C(F)(F)F)c3)[C@@H]2c2ccc(CO)cc2I)cc1 | 0.899
53 | Cc1ccc(/C=N/N(C)C2=NCCN2)o1 | 0.997
54 | C[C@H](C(=O)O)N1C(=O)c2ccccc2C1=O | 0.998

Row | SMILES | relative growth
55 | CC(C)C[C@@H](NC(=O)[C@@H](C)N)C(=O)O | 0.925
56 | C[C@H]1CN([C@@H](C)CO)C(=O)Cc2cc(NC(=O)Nc3cccc(C(F)(F)F)c3)ccc2O[C@H]1CN(C)S(=O)(=O)c1ccc(Cl)cc1 | 1.13
57 | C[C@H]1CN([C@@H](C)CO)S(=O)(=O)c2ccc(Br)cc2O[C@@H]1CN(C)C(=O)c1cnccn1 | 0.974
58 | O=C([O-])CCCc1ccccc1.[Na+] | 1.24
59 | CC(C)Sc1n[nH]c(=O)[nH]c1=O | 1.01
60 | Nc1nnnn1/N=C\c1ccc(O)cc1 | 1.01
61 | Cn1cnc(CCNC(=O)C[C@@H]2CC[C@H]3[C@@H](COC[C@H](O)CN3C(=O)Nc3ccc(Cl)cc3)O2)c1 | 0.813
62 | CCC(=O)Nc1ccc(Cl)cc1 | 0.996
63 | CO[C@H]1CN(C)C(=O)c2ccc(NC(=O)Nc3ccccc3)cc2OC[C@H](C)N(C(=O)CN(C)C)C[C@H]1C | 1.04
64 | COc1cc(Cc2cnc(N)nc2N)cc(OC)c1OC | 0.158
65 | CC1(C)O[C@H]2CC(=O)OC[C@]23[C@H]2CC[C@@]4(C)[C@H](c5ccoc5)OC(=O)[C@H]5O[C@]54[C@]2(C)C(=O)C[C@@H]13 | 0.84
66 | CNc1cc(=O)n(C)c(=O)n1C | 0.962
67 | O=C(CCCCCCC(=O)Nc1ccc([C@@H]2O[C@H](CSc3nc(-c4ccccc4)c(-c4ccccc4)o3)C[C@H](c3ccccc3)O2)cc1)NO | 0.986
68 | COC[C@H]1CNN1C(=O)Nc1c(C)noc1C | 0.998
69 | NNC(=O)CCCCCCC(=O)O | 0.897
70 | COC(=O)[C@H]1CCNCCC1=O | 1.05
71 | O=C(NCc1csnn1)c1csnn1 | 0.913
72 | COCC#Cc1ccc2c(c1)O[C@H](CN(C)Cc1ccccc1F)[C@@H](C)CN([C@@H](C)CO)S2(=O)=O | 1.01
73 | NCCc1[nH]cnc1-c1cccs1 | 0.935
74 | C[C@H](O)[C@H](O)[C@@H](O)[C@@H](O)/C=N/NC(=O)c1ccc(C(=O)NO)cc1 | 1.09
75 | O=C(C[C@@H]1CC[C@H]2[C@@H](COC[C@H](O)CN2C(=O)Nc2cccc(Cl)c2)O1)NCc1ccccc1F | 1.08
76 | O=C(O)COCC(=O)Nc1cnccn1 | 1.09
77 | COC(=O)C[C@@H]1CC[C@@H]2[C@H](COC[C@H](O)CN2S(=O)(=O)c2ccccc2C)O1 | 1.16
78 | CCS(=O)(=O)NCC[C@H]1CC[C@H](NC(=O)C2CCOCC2)[C@@H](CO)O1 | 1.08
79 | COC(=O)C[C@H]1CC[C@H]2[C@@H](COC[C@@H](O)CN2S(=O)(=O)c2ccccc2C)O1 | 1.06
80 | C[C@H](O)C#Cc1ccc2c(c1)O[C@@H](CN(C)C(=O)C1CCCCC1)[C@H](C)CN([C@H](C)CO)S2(=O)=O | 0.92
